Results as given in patent publication US20240239801A1, “PYRIMIDO[5,4,D]PYRIMIDINE COMPOUNDS, COMPOSITIONS COMPRISING THEM AND USES THEREOF” (Université de Montréal, priority 2021, published 2024).
Where two headings read alike, the source gives them in different places.

What was measured:
Test in all cases: Phospho-ERK inhibition, AlphaLISA SureFire Ultra p-ERK 1/2
IPC298 pERK = settings: Table D-1; for IPC298 pERK, value in parentheses, % inhibition: % Ymin of pERK IC50 curve; for IC50: read-out: IPC298 pERK IC50
Experimental: (§1) All cancer cell lines (A375, A101D, A2058, RKO, HT29 SK-MEL 30, IPC298, HepG2, HCT-116, Lovo, SW620, SW480, NCI-H358, NCI-H2122, Calu-6, NCIH2087, NCIH1755, NCIH1666 and Mewo) were obtained from ATCC and cultured in RPMI-1640 medium (Gibco) supplemented with 5% heat inactivated fetal bovine serum (FBS, Wisent) at 37° C. under 5% CO2. Cells were maintained in T175 flasks (Greiner). They were passaged by removing the culture medium, washing once in 10 mL of room temperature Phosphate Buffered Saline (PBS; Wisent) and incubating at 37° C. with 2 mL of 0.05% Trypsin (Thermo-Fisher). Trypsin was then inactivated by adding complete growth medium and the cells were then replated in a T175 culture dish at the appropriate dilution. All cell lines were routinely tested for mycoplasma contamination. Tissue type and mutational status of each cell line can be found in Table B.
(§2) AlphaLISA® SureFire® Ultra™ p-ERK ½ (Thr202/Tyr204) analysis was conducted on cells plated in 100 μL of complete RPMI-1640 growth medium in 96-well flat-bottomed transparent dishes (Costar) at a density indicated in Table C. Cells were maintained overnight at 37° C. under 5% CO2 before treatment with compounds' dilution series for one hour. The cell density in cells/cm^2 corresponds to cell number divided by the area of one well of a 96-well plate ([…]).
(§3) In a dilution series 100 μL/well of test substance dilution prepared in complete RPMI-1640 growth media was added to the cells. The dilution series is selected so that ten concentrations cover a range from 30 μM or 10 μM to 0.33 nM. If necessary, the initial concentration of 10 μM is increased to 100 μM or lowered to 1 μM (as in the case of A375 and NCIH1666 cells, which are generally more sensitive to the compounds) and further dilution is carried out accordingly. The final concentration of DMSO in the assay is set at 0.5%.
(§4) After treatment, media was removed, and cells were lysed in 50 μL of 1× AlphaScreen Ultra Lysis Buffer (Perkin Elmer). The AlphaLISA® SureFire® Ultra™ p-ERK ½ (Thr202/Tyr2O4) (PerkinElmer) reactions were performed with 5 μL of cell lysate according to the manufacturer's specifications in 384-well proxyplates (Perkin Elmer) followed by overnight incubation of the reactions at room temperature in a humidified chamber. After completion of the reactions, the signals were recorded on an EnVision plate reader (Perkin Elmer) using built in AlphaLISA® settings.
(§5) The effect of each compound dilution on the pERK signal was expressed in % inhibition and calculated as follows. An internal 100% inhibition control (1 μM trametinib, cat. No. HY-10999; MedChem Express; CAS No. 871700-17-3) was included in each plate and used as a measure of pERK background. First, the value obtained for trametinib was subtracted from each data point. The average of DMSO (vehicle) controls (set as 0% inhibition) was established and used to calculate % inhibition:
(§6) The ability of each compound to inhibit pERK signal was expressed as an IC50 value obtained by plotting the inhibition values for each data point of a dilution series and fitting the obtained curves using a log(agonist) versus response−variable slope (four parameters) function using GraphPadPrism (V7.0).
(§7) When present, paradoxical pERK induction is inferred from the negative % inhibition values observed in the pERK IC50 curves of a compound.

NCI-H2122 pERK = settings: Table D-2; for NCI-H2122 pERK, value in parentheses, % inhibition: % Ymin of pERK IC50 curve; for IC50: read-out: NCI-H2122 pERK IC50
Experimental: as §1, §2, §3, §4, §5, §6, §7

NCIH2087 pERK = settings: read-out: NCIH2087 pERK IC50; Table D-2
Experimental: as §1, §2, §3, §4, §5, §6, §7

NCIH1755 pERK = settings: Table D-2; for NCIH1755 pERK, value in parentheses, % inhibition: % Ymin of pERK IC50 curve; for IC50: read-out: NCIH1755 pERK IC50
Experimental: as §1, §2, §3, §4, §5, §6, §7

HepG2 pERK = settings: Table D-1; for HepG2 pERK, value in parentheses, % inhibition: % Ymin of pERK IC50 curve; for IC50: read-out: HepG2 pERK IC50
Experimental: as §1, §2, §3, §4, §5, §6, §7

Lovo pERK = settings: read-out: Lovo pERK IC50; Table D-2
Experimental: as §1, §2, §3, §4, §5, §6, §7

Mewo pERK = settings: Table D-2; for Mewo pERK, value in parentheses, % inhibition: % Ymin of pERK IC50 curve; for IC50: read-out: Mewo pERK IC50
Experimental: as §1, §2, §3, §4, §5, §6, §7

SK-MEL30 pERK = settings: Table D-1; for SK-MEL30 pERK, value in parentheses, % inhibition: % Ymin of pERK IC50 curve; for IC50: read-out: SK-MEL30 pERK IC50
Experimental: as §1, §2, §3, §4, §5, §6, §7

NCI-H358 pERK = settings: Table D-2; for NCI-H358 pERK, value in parentheses, % inhibition: % Ymin of pERK IC50 curve; for IC50: read-out: NCI-H358 pERK IC50
Experimental: as §1, §2, §3, §4, §5, §6, §7

HCT116 pERK = settings: for HCT116 (Ymin %): lowest value of the pERK IC50 curve; for HCT116 pERK, value in parentheses, % inhibition: % Ymin of pERK IC50 curve
Experimental: as §1, §2, §3, §4, §5, §6, §7

SW480 pERK = settings: for SW480 (Ymin %): lowest value of the pERK IC50 curve; for SW480 pERK, value in parentheses, % inhibition: % Ymin of pERK IC50 curve
Experimental: as §1, §2, §3, §4, §5, §6, §7

SW620 pERK = settings: read-out: SW620 pERK IC50; Table D-2
Experimental: as §1, §2, §3, §4, §5, §6, §7

Calu6 pERK = settings: Table D-2; for Calu6 pERK, value in parentheses, % inhibition: % Ymin of pERK IC50 curve; for IC50: read-out: Calu6 pERK IC50
Experimental: as §1, §2, §3, §4, §5, §6, §7

[1] = read-out: HCT116 PERK IC50, Table 3, 1 h treatment
[2] = read-out: HCT116 pERK IC50, Table D-1
[3] = read-out: SW480 PERK IC50, Table 3, 1 h treatment
[4] = read-out: SW480 pERK IC50, Table D-2

COc1ccc(S(=O)(=O)Nc2ccc(F)c(Nc3ncnc4cnc(-n5cc(S(=O)(=O)N(C)CCN(C)C)c6ccccc65)nc34)c2F)c(C)c1Cl
IPC298 pERK, value in parentheses, % inhibition (IPC298 pERK): (−4) % | IC50 (IPC298 pERK): 0.03 to 0.3 µM | NCI-H2122 pERK, value in parentheses, % inhibition (NCI-H2122 pERK): (−3) % | IC50 (NCI-H2122 pERK): > 0.3 µM | IC50 (NCIH2087 pERK): < 0.03 µM | NCIH1755 pERK, value in parentheses, % inhibition (NCIH1755 pERK): (0) % | IC50 (NCIH1755 pERK): 0.03 to 0.3 µM | HepG2 pERK, value in parentheses, % inhibition (HepG2 pERK): (30) % | IC50 (HepG2 pERK): 0.03 to 0.3 µM | IC50 (Lovo pERK): 0.03 to 0.3 µM | Mewo pERK, value in parentheses, % inhibition (Mewo pERK): (−12) % | IC50 (Mewo pERK): 0.03 to 0.3 µM | SK-MEL30 pERK, value in parentheses, % inhibition (SK-MEL30 pERK): (−12) % | IC50 (SK-MEL30 pERK): 0.03 to 0.3 µM | NCI-H358 pERK, value in parentheses, % inhibition (NCI-H358 pERK): (29) % | IC50 (NCI-H358 pERK): 0.03 to 0.3 µM | HCT116 (Ymin %) (HCT116 pERK; Table 3): −7% | HCT116 pERK, value in parentheses, % inhibition (HCT116 pERK; Table D-1): (−7) % | IC50 (HCT116 pERK; [1]): < 0.5 µM | IC50 (HCT116 pERK; [2]): > 0.3 µM | SW480 (Ymin %) (SW480 pERK; Table 3): −5% | SW480 pERK, value in parentheses, % inhibition (SW480 pERK; Table D-2): (−5) % | IC50 (SW480 pERK; [3]): < 0.5 µM | IC50 (SW480 pERK; [4]): 0.03 to 0.3 µM | IC50 (SW620 pERK): 0.03 to 0.3 µM | Calu6 pERK, value in parentheses, % inhibition (Calu6 pERK): (−16) % | IC50 (Calu6 pERK): 0.03 to 0.3 µM

O=S(=O)(Nc1ccc(F)c(Nc2ncnc3cnc(-n4cnc5c(N6CCC(O)(C(F)(F)F)CC6)cccc54)nc23)c1F)c1cccc(Cl)c1Cl
IPC298 pERK, value in parentheses, % inhibition (IPC298 pERK): (8) % | IC50 (IPC298 pERK): 0.03 to 0.3 µM | NCI-H2122 pERK, value in parentheses, % inhibition (NCI-H2122 pERK): (−4) % | IC50 (NCI-H2122 pERK): > 0.3 µM | IC50 (NCIH2087 pERK): < 0.03 µM | NCIH1755 pERK, value in parentheses, % inhibition (NCIH1755 pERK): (1) % | IC50 (NCIH1755 pERK): < 0.03 µM | HepG2 pERK, value in parentheses, % inhibition (HepG2 pERK): (34) % | IC50 (HepG2 pERK): < 0.03 µM | IC50 (Lovo pERK): 0.03 to 0.3 µM | Mewo pERK, value in parentheses, % inhibition (Mewo pERK): (−7) % | IC50 (Mewo pERK): 0.03 to 0.3 µM | SK-MEL30 pERK, value in parentheses, % inhibition (SK-MEL30 pERK): (13) % | IC50 (SK-MEL30 pERK): < 0.03 µM | NCI-H358 pERK, value in parentheses, % inhibition (NCI-H358 pERK): (14) % | IC50 (NCI-H358 pERK): 0.03 to 0.3 µM | HCT116 (Ymin %) (HCT116 pERK; Table 3): 7% | HCT116 pERK, value in parentheses, % inhibition (HCT116 pERK; Table D-1): (7) % | IC50 (HCT116 pERK; [1]): < 0.5 µM | IC50 (HCT116 pERK; [2]): 0.03 to 0.3 µM | SW480 (Ymin %) (SW480 pERK; Table 3): −14% | SW480 pERK, value in parentheses, % inhibition (SW480 pERK; Table D-2): (−14) % | IC50 (SW480 pERK; [3]): < 0.5 µM | IC50 (SW480 pERK; [4]): 0.03 to 0.3 µM | IC50 (SW620 pERK): 0.03 to 0.3 µM | Calu6 pERK, value in parentheses, % inhibition (Calu6 pERK): (1) % | IC50 (Calu6 pERK): 0.03 to 0.3 µM
